The source of these data is US20210113563A1, “4-(4-CYANO-2-THIOARYL)DIHYDROPYRIMIDINONES FOR TREATING CHRONIC WOUNDS” (pH Pharma Co., Ltd., priority 2015, published 2021).

Amino acid sequences for entries named in this document (tags omitted). Residues count along the entry.
UniProt Q3UP87, 27-265: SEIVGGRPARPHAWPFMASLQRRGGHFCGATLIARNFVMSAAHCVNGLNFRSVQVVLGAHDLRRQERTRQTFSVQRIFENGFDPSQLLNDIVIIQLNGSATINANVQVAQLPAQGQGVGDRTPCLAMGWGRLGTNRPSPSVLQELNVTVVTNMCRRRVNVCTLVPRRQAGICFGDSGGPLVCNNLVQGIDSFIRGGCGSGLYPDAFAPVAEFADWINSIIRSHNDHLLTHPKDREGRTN

The target of test [1] is Neutrophil Elastase (NE) (Mus musculus, UniProt Q3UP87). The conditions noted are these: db/db mouse, day 8.
In test [2] the target is T1, human neutrophil elastase (HNE) (Homo sapiens, UniProt P08246).
T1 sequence (P08246 30-267): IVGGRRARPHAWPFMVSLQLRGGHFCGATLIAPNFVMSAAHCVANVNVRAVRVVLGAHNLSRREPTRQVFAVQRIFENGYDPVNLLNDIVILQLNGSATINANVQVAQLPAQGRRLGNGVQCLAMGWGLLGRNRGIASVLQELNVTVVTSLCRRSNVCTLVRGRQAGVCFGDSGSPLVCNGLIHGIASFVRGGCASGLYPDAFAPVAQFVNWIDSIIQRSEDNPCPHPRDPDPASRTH
The conditions noted are these: read-out: Inhibition of human neutrophil elastase (HNE) IC50; cited from earlier work.

Like-named read-outs stand apart in the source and are kept apart here.

Usually IC50 stands for the midpoint of a concentration-inhibition curve. Turning to `CC1=C(C#N)[C@@H](c2ccc(C#N)cc2S(C)(=O)=O)N(C)C(=O)N1c1cccc(C(F)(F)F)c1` [Example 5, (4 S)-4-[4-Cyano-2-(methylsulfonyl)phenyl]-3,6-dimethyl-2-oxo-1-[3-(trifluoromethyl)phenyl]-1,2,3,4-tetrahydropyrimidine-5-carbonitrile], the “NE activity in wound tissue” value in test [1] (0.3 mg/kg BW o.d. p.o.) was 6677 ng/mL equivalent; in test [1] (1.0 mg/kg BW o.d. p.o.), 5018 ng/mL equivalent. In test [2], the IC50 is less than 300 pM.
